From patent US11737991B2, “Eutectic formulations of cyclobenzaprine hydrochloride and amitriptyline hydrochloride” (TONIX PHARMA HOLDINGS LIMITED, priority 2013, dated 2023)

Experiment: DSC, FT-IR/ATR and XRPD compatibility of excipients with Cyclobenzaprine HCl, mixed (A) and milled (B) 1:1 mixtures (Example 2)
Type: physicochemical
Description: As described above, thermal analytical techniques were further used to assess the compatibility of a drug product (tablet) containing Cyclobenzaprine HCl (API). The compatibility assessment was carried out between the API and additional excipients in a 1:1 ratio. The 1:1 APT-excipient mixtures were formed in two different ways: first, by mixing only, and second, by strong milling in an agate mortar. The thermal behavior recorded in the two different mixtures were compared with those of the single components. On the basis of thermal events recorded for each component and for the mixtures, the analyses were carried out by investigating the meanings of the peaks recorded by differential scanning calorimetry (DSC) in mixtures between the API and the excipients. Furthermore, in order to define the nature of the interaction, the Fourier Transform Infra Red Spectroscopy with Total Attenuated Reflectance (FT-IR/ATR) and X-ray powder diffraction (XRPD) of some samples (API, excipient, and mixed and milled mixtures) was carried out and compared.
Aliquots of API and each excipient were weighed in a ratio of 1:1 and ground in an agate mortar. Then, the homogeneous mixtures were analyzed. These sample mixtures were labeled “B”, while the mechanical-only mixtures were labeled “A.”
The DSC heating curves were obtained by TA 821 DSC Mettler instrument under the following conditions: […]

With “Disodium Glycine Carbonate [Di Sodium Glycine carbonate]” the “Nature of interaction by FT-IR/ATR” value (1:1 mixture, room temperature, no thermal treatment) was “no chemical acid-basis reaction occurred” and the “Type of interaction between excipient and API (summary)” value (1:1 mixtures, mixed and milled) was “only physical”.
